Yeast mating assay B: variants of the scFv Ab-14

Target peptide (SARS-CoV-2 spike, HR2 region): PDVDLGDISGINAS

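The parent was found by panning a naive human phage display library on the peptide. Designed CDR sequences, proposed from the first random library and measured here. Group labels follow the data file (Ctrl: baseline library sampled from a position-specific scoring matrix, with some repeated check sequences; Rand: our label for a block that the file lists under HC and that is probably the random mutants of the ten best first-round binders; En: ensemble of fine-tuned language models; GP: Gaussian process model; GPLM: also part of the Gaussian process libraries; HC: hill climbing; Gen: genetic algorithm; Gibbs: Gibbs sampling; a sequence that several methods proposed may carry one label only). Affinity was read by AlphaSeq, a pooled yeast mating assay with surface-displayed partners. Binding brings cells together so that they mate, and sequencing counts the barcode pairs among the diploids. Each replicate has its own calibration line, from reference interactions of the BCL2 family. There are six technical replicates.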

The variants keep the light chain, the linker and the frameworks of Ab-14 (scFv order VH, a (GGGGS)3 linker, VL).
VH: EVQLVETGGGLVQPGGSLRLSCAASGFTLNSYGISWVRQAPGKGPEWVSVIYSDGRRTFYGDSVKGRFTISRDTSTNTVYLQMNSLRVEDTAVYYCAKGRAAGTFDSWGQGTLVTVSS
VL: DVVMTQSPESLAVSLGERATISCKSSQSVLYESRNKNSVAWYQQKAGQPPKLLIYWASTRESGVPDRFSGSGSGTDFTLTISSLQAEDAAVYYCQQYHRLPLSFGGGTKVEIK

Substitutions are numbered in sequence along the VH above, starting at 1 (not Kabat).
This list holds designs with at most six substitutions.
The read-out is the apparent dissociation constant on a log10 scale (nM): the lower, the stronger.
Averages over replicates are reported, and they cover detected replicates only.
Where no diploid with the target was found in any replicate, the entry reads "no signal": below detection, most likely a poor binder, though not proof of it.
Three control strains display no target. For all heavy chain designs, 1% of the pairings with them gave a signal, with a median of 2.08 and one signal in twenty below 0.84, so weak values seen in few replicates may be background.

The variant S31Q+D62P [Ctrl] showed 1.39 (5 of 6 replicates). The variant T28S+R100S+A101T+S107V [GP_Gen] gave 0.01 (6 of 6 replicates). With G26K+G61A+R100Q+A101E [GP_Gibbs] the result was 0.59 (6 of 6 replicates). The variant R100S+D106T [Ctrl] gave no signal (0 of 6 replicates). For N30L+S53A+S63N [Ctrl], the assay gave no signal (0 of 6 replicates). The variant R56G+F59A+A102R+F105P [Ctrl] gave no signal (0 of 6 replicates). The variant R56I+R100Q+A101T+S107L [GP_Gibbs] showed 1.29 (6 of 6 replicates). With T28D+G61Q+R100Q [GPLM_Gibbs] the result was -0.40 (4 of 6 replicates).

The variant G99Q [Ctrl] gave no signal (0 of 6 replicates). For T28E+S31E+R100Q+A101T+S107L [GP_Gibbs], the assay gave 0.46 (6 of 6 replicates). For G26W+T28S+S53A+R100Q [GP_Gibbs], the assay gave 0.76 (1 of 6 replicates). With G61D+D62W+R100Q+A101V [GP_HC] the result was no signal (0 of 6 replicates). The variant T28W+S53A+R100N [GP_Gen] showed 0.26 (6 of 6 replicates). For T28E+G61D+R100M+A101L [GP_HC], the assay gave 0.32 (6 of 6 replicates). The variant G61S+A101E+D106I [GP_HC] showed no signal (0 of 6 replicates). With G61S+R100V+A102G+S107V [GP_HC] the result was no signal (0 of 6 replicates).

With T28S+S31E+R100K+A101H [GPLM_Gen] the result was 0.13 (6 of 6 replicates). With T28D+G61K+R100E [GP_Gen] the result was 0.28 (6 of 6 replicates). The variant T28A+S31E+A101H [GPLM_Gen] showed 1.06 (3 of 6 replicates). For F27E+G61I+D106E [Ctrl], the assay gave 1.82 (1 of 6 replicates). The variant T28Q+S31E+S63Q+R100Q+A101T [GP_Gen] showed -0.32 (2 of 6 replicates). The variant T28S+G61D+R100A+A101L [GP_HC] showed 0.15 (6 of 6 replicates). With G26M+T28S+S31E+A101Q [GP_Gibbs] the result was 1.12 (3 of 6 replicates). With S31E+R100Q+D106V+S107T [Ctrl] the result was 0.21 (6 of 6 replicates).

With T28S+S31T+G61K+R100E [GP_Gibbs] the result was 0.35 (6 of 6 replicates). The variant S31Q+R56I+A102G [Ctrl] gave no signal (0 of 6 replicates). The variant T28N+S63N+R100K+A101Q [GP_Gibbs] gave 1.56 (5 of 6 replicates). The variant N30Q+F59A+R100F [Ctrl] gave 1.44 (4 of 6 replicates). The variant T28G+S31E+A101N+D106I [GP_HC] showed no signal (0 of 6 replicates). For S31D+R56K+F59M+G61I [GPLM_HC], the assay gave 0.86 (6 of 6 replicates). The variant G99D+S107Q [Ctrl] gave 0.47 (6 of 6 replicates). For T28D+S31E+S53A+G61I+R100N+A101E [En_HC], the assay gave -0.71 (6 of 6 replicates).

For G26M+T28D+A101T+S107D [GP_Gibbs], the assay gave 1.43 (4 of 6 replicates). For S31E+G61A+G103V+S107Q [GP_HC], the assay gave no signal (0 of 6 replicates). The variant T28S+S53A+R100Q+S107L [GPLM_Gen] showed 0.08 (6 of 6 replicates). The variant Y52K+G61S+A102G [Rand] gave 3.02 (1 of 6 replicates). For S31E+G103D [Ctrl], the assay gave no signal (0 of 6 replicates). With S31D+R56K+G61I+R100E [Ctrl] the result was -0.13 (6 of 6 replicates). For R56K+R100Q+S107F [GP_Gibbs], the assay gave 1.04 (1 of 6 replicates). The variant R100K+A101T+S107T [GPLM_Gen] showed 0.75 (6 of 6 replicates).

For S31E+A101F+S107E [GP_HC], the assay gave 0.61 (6 of 6 replicates). The variant T28Q+S31E+G61D+A101H [GP_HC] showed 0.12 (6 of 6 replicates). With T28D+G61Q+A101T+S107Y [GP_Gibbs] the result was 0.25 (6 of 6 replicates). With F59H+G61M+A101I+G103F [Ctrl] the result was no signal (0 of 6 replicates). The variant T28D+R56K+G61H+A101T [GP_Gen] showed 0.45 (6 of 6 replicates). The variant G26H+T28D+R100Q+A101T [GP_Gen] showed 0.99 (6 of 6 replicates). For F59Y+F105D [Ctrl], the assay gave 2.47 (2 of 6 replicates). The variant T28S+G61I+S63N+R100N [GPLM_Gibbs] gave 0.11 (1 of 6 replicates).

A selection of 4 entries from above:

changes,group,"log10 Kd (nM), mean",seen in
T28S+S31E+R100K+A101H,GPLM_Gen,0.13,6 of 6
R56G+F59A+A102R+F105P,Ctrl,no signal,0 of 6
T28S+S31T+G61K+R100E,GP_Gibbs,0.35,6 of 6
T28D+S31E+S53A+G61I+R100N+A101E,En_HC,-0.71,6 of 6

The authors' rule: three or more of the six replicates give a measured affinity, fewer mean a poor binder.
The parent sequence was in this pool as ten entries: three were never detected, three once, and four in most replicates, with averages from 0.34 to 2.37.
A sequence measured in both rounds can read differently, since the two assays cover different ranges.

The measurements come from Li et al. 2023 (doi:10.1038/s41467-023-39022-2) through the FLAb antibody collection.